# Source: PubChem BioAssay AID651822 (The Scripps Research Institute Molecular Screening Center, 2012)
# Only a part is listed here, and it is no random draw. Activity calls are given as the source filed them. No stated cut-off is given here; in the data, active means inhibition above about 4.5%; inactive means the rest.
# Tested on: Methionine sulfoxide reductase A (Bos taurus)
# Experiment: bovine MsrA inhibitors, retest, confirmation, biochemical, absorbance, HTS (AID 651822);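 further: coupled to thioredoxin reductase with NADPH and selenocystamine and DMSO as substrate; 0% = vehicle only and 100% = full effect of reference inhibitor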
# Settings: purified bovine MsrA, absorbance read-out; at 15.5 µM; hits give high values
row,SMILES,inhibition
1,CN(Cc1cccnc1)C(=O)COc1ccc(Cl)c(Cl)c1.O=[N+]([O-])c1cc([N+](=O)[O-])c(O)c([N+](=O)[O-])c1,inactive: 2.58%
2,Cc1nc2ccc3ccccc3c2s1.O=[N+]([O-])c1cc([N+](=O)[O-])c(O)c([N+](=O)[O-])c1,inactive: 3.55%
3,O=[N+]([O-])c1cc([N+](=O)[O-])c(NCC2CCS(=O)(=O)C2)c([N+](=O)[O-])c1 (centres undefined),inactive: 3.42%
4,O=[N+]([O-])c1cc([N+](=O)[O-])c(OC2CCCCC2O)c([N+](=O)[O-])c1 (centres undefined),inactive: 2.39%
